The values below come from patent US20090191253A2 (Creabilis Therapeutics S.P.A., priority 2005, published 2009).

For the test, the target named is T1, MAP2K3 (Homo sapiens, UniProt P46734, S218E/T222E).
T1 sequence (P46734 1-347 S218E/T222E): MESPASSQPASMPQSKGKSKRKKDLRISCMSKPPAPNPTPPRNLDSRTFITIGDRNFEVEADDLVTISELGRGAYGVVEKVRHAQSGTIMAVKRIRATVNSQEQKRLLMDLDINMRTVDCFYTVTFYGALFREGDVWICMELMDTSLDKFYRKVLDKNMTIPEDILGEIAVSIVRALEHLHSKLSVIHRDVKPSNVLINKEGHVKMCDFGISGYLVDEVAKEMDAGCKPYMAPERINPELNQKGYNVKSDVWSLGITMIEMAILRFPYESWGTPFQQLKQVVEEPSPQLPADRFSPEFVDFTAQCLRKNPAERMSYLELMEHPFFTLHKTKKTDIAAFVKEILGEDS
In words: biochemical.

Molecule `COC(=O)[C@]1(O)CC2O[C@@]1(C)n1c3ccccc3c3c4c(c5c6ccccc6n2c5c31)C(=O)NC4` [K-252a] registered an inhibition at 0.2 µM of 100%.

The term inhibition denotes the relative decrease from the control value, in per cent. High values mean strong suppression, low ones little suppression.
